Measured values reported in patent US8476302B2, “α-ketoamide derivatives useful endothelial lipase inhibitors” (Janssen Pharmaceutica N.V., priority 2010, dated 2013).
pIC50: −log10 of the molar value.

Protein sequences, listed by entry. Tags and fused reporters are not part of them. Residues count along the entry.
UniProt Q9Y5X9, 21-500 limits assumed: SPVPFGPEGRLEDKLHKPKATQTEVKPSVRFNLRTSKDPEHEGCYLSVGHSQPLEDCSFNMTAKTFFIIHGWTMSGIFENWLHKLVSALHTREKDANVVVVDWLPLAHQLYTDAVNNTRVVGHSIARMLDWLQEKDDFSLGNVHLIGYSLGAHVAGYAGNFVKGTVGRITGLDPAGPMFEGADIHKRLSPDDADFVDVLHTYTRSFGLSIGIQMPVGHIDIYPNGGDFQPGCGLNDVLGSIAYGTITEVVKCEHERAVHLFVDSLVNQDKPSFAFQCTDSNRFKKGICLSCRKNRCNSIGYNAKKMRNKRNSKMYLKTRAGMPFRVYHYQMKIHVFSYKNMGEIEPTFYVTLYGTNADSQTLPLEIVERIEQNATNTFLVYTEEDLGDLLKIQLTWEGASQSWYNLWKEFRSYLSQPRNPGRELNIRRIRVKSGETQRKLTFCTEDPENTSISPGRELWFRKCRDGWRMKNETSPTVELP
UniProt Q9WVG5, 21-500 limits assumed: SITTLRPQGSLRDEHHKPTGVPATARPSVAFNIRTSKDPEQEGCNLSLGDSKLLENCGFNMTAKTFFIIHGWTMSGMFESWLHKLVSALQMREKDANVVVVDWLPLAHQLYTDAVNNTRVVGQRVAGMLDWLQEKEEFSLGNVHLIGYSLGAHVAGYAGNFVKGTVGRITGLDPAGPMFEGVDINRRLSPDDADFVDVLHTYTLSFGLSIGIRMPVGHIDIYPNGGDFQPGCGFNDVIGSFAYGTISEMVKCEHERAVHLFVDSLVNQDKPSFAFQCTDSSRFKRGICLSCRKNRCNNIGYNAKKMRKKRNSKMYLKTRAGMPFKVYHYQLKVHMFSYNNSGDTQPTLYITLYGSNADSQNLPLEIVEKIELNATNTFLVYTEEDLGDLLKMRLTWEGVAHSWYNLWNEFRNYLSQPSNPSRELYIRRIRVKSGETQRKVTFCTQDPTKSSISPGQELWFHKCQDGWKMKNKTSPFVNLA

Columns and labels:
[1] = target: human endothelial lipase (EL) (Homo sapiens, UniProt Q9Y5X9); experiment: Endothelial Lipase Assay, cell surface lipase activity (human); settings: read-out: Human IC50; cells expressing human EL, PLA1 substrate 10 μM, fluorescence reaction rate; several values in a cell are repeat determinations
Method: (§1) Endothelial Lipase Assay (Human/Mouse)
(§2) To assay for cell surface lipase activity, cells expressing human endothelial lipase (EL) or LPL were plated in CellBIND® 384-well plates (Corning, Lowell, Mass.) in 25 μL serum free medium at a density of 2000 cells/well. After 18-24 hours incubation at 37° C., the medium was removed and replaced with 15 μL assay buffer [Hank's Buffered Saline Solution with 25 mM HEPES pH 7.2] and 15 μL PLA1 for a final concentration of 10 μM using a Multidrop reagent dispenser. Fluorescence signal was monitored for 30 min at 37° C. on a Safire II plate reader in kinetic mode (60 cycles, kinetic interval: 30 seconds) with an excitation wavelength of 490 nm and an emission wavelength of 515 nm. Linear regression of the fluorescence intensity collected from 480 to 1500 seconds was used to calculate the reaction rate (the slope) and the slopes were used to calculate IC50 values where appropriate. The amount of BODIPY-labeled product generated was calculated at the 30 min time point as determined from standard curve analysis of purified BODIPY FL C5. In all studies using the inhibitor Ebelactone B, consistent results were obtained when it was dissolved as a stock in DMSO, immediately before use.

Mouse EL = Mouse EL (Mus musculus, UniProt Q9WVG5); experiment: Endothelial Lipase Assay, cell surface lipase activity (mouse); settings: read-out: Mouse IC50, PLA1 substrate 10 μM, fluorescence reaction rate, several values in a cell are repeat determinations
Method: as §1, §2

SMILES: O=C(CCCCCCc1ccccc1)C(=O)NCc1nnc(-c2ccc(OCCc3ccccc3)cc2)o1
- pIC50 [1]: 6.86
- pIC50 (Mouse EL): 7.32

SMILES: O=C(CCCCCCc1ccccc1)C(=O)NCc1nnc(-c2ccc(OCc3cc(Cl)nc(Cl)c3)cc2)s1
- pIC50 [1]: 6.21
- pIC50 (Mouse EL): 7.24

SMILES: O=C(CCCCCCc1ccccc1)C(=O)NCc1nnc(-c2ccc([S+]([O-])Cc3ccccc3)cc2)o1 (centres unmarked)
- pIC50 [1]: 4.49

SMILES: O=C(CCCCCCc1ccccc1)C(=O)NCc1nnc(-c2ccc(OCc3cncc(F)c3)cc2)s1
- pIC50 [1]: 5.89
- pIC50 (Mouse EL): 5.36

SMILES: COC(=O)c1ccc(COc2ccc(-c3nnc(CNC(=O)C(=O)CCCCCCc4ccccc4)o3)cc2)o1
- pIC50 [1]: 6.47
- pIC50 (Mouse EL): 6.76

SMILES: O=C(CCCCCOc1cccc(Cl)c1)C(=O)NCc1nnc(-c2ccc(Oc3ccccc3)cc2)o1
- pIC50 [1]: 5.74
- pIC50 (Mouse EL): 6.34
